Earlier results as cited in US10239871B2, “Compounds and methods for regulating integrins” (ADHAERE PHARMACEUTICALS, INC., priority 2012, dated 2019).

Test system: patients
Conditions: human, in vivo; cited from earlier work

Trastuzumab: humanized monoclonal antibody against the HER2 tyrosine kinase receptor
incidence of LVEF decrease or asymptomatic heart failure: ~7%
